This passage reports ΔTm results from publication PMC3223731, “Environment sensing and response mediated by ABC transporters” (BMC Genomics, 2011).

For the test, the target named is T1, RPA3790 (Rhodopseudomonas palustris, UniProt Q6N3A4).
T1 construct: gene TX73_019620; signal peptide or N-terminal TM helix removed; N-terminal 6xHis-TEV tag retained; E. coli
T1 sequence (Q6N3A4 23-267): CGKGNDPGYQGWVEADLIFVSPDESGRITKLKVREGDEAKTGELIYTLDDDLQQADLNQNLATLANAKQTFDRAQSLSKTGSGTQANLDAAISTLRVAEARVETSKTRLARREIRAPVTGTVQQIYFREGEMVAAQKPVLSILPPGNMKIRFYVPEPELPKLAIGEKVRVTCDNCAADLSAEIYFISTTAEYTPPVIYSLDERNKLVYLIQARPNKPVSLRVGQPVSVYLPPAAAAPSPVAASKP
Nature of the test: fluorescence thermal shift (SYPRO orange). It counts as binding. Particulars: 100x ligand over protein (5 or 10 µM protein); 100 mM HEPES, 150 mM NaCl, pH 7.5.

As to `O=C(O)c1ccccc1O` [salicylic acid], the ΔTm entry was “interaction such as that of salicylic acid with proteins RPA0668, RPA0985 and RPA3790”.
